{"source": "patent EP2420255A2", "about": "“Polypeptide inhibitors of urokinase type plasminogen activator” (Ecole Polytechnique Federale De Lausanne (EPFL), priority 2010, dated 2012)", "origin": "cited, not measured here", "target": "trypsin", "details": "literature; cited from earlier work", "data": [{"molecule": "N=C(N)c1ccc(CNC(=O)[C@H](CO)NC(=O)[C@@H](CO)NS(=O)(=O)Cc2ccccc2)cc1", "note": "[CJ-463, benzylsulfonyl-D-Ser-Ser-4-amidinobenzylamide]", "values": [{"measurement": "Ki", "value": 0.022, "unit": "µM"}]}]}
